Biological target: T1, 14-3-3γ (Homo sapiens, UniProt P61981)
T1 construct: full-length human 14-3-3 constructs with an N-terminal MBP fusion were used; made in house; host or cells: E. coli BL21(DE3)
T1 sequence (P61981 1-247): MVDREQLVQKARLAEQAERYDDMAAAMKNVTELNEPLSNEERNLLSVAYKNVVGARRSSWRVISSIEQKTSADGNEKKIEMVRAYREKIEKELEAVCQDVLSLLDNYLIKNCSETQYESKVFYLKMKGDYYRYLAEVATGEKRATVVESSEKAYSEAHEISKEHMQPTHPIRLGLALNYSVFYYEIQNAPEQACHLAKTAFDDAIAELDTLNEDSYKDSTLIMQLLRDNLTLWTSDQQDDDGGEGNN
Assay: biochemical
Format: binding
Description: FP was measured with a PHERAstar (BMG Labtech, Offenburg, Germany) microplate reader by using 485 ± 20 and 528 ± 20 nm band-pass filters (for excitation and emission, respectively). In direct FP measurements, a dilution series of the 14-3-3 protein was prepared in 96-well plates (96-well skirted PCR plate, 4ti-0740, 4titude, Wotton, UK) in a 20 mM HEPES pH 7.5 buffer containing 150 mM NaCl, 0.5 mM TCEP, 0.01% Tween 20, 50 nM fluorescently labeled fpB6 peptide, and 100 μM FSC, if indicated. The volume of the dilution series was 40 μl, which was later divided into three technical replicates of 10 μl upon transferring to 384-well micro-plates (low binding microplate, 384 well, E18063G5, Greiner Bio-One, Kremsmünster, Austria). In total, polarization of the probe was measured at eight different protein concentrations (whereas one contained no protein and corresponded to the free peptide). In competitive FP measurements, the same buffer was supplemented with the protein to achieve a complex formation of 60–80%, based on the direct titration. Then, this mixture was used for creating a dilution series of the unlabeled competitor (i.e., the studied peptides) and the measurement was carried out identically as in the direct experiment.
All FP experiments were done in triplicates. Analysis of FP experiments were carried out using ProFit, an in-house developed, Python-based fitting program. […]

CC(C)[C@H](NC(=O)[C@H](CCC(=O)O)NC(=O)[C@@H](NC(=O)[C@H](CCC(=O)O)NC(=O)[C@H](CCCNC(=N)N)NC(=O)[C@H](CCCNC(=N)N)NC(=O)[C@@H](NC(=O)[C@@H]1CCCN1C(=O)[C@H](CCCCN)NC(=O)[C@H](CO)NC(=O)CCC(=O)NCCCOCCOCCOCCCNC(=O)CCCC[C@@H]1SC[C@@H]2NC(=O)N[C@@H]21)[C@@H](C)O)[C@@H](C)OP(=O)(O)O)C(=O)O [pHPV35E6]
Kd: 228 ± 61 µM
